Sequences of proteins named here, by UniProt entry; tags and fusion partners are left off. A change or cut given only in a name is not applied to a line headed by its entry.
UniProt Q9H4K7: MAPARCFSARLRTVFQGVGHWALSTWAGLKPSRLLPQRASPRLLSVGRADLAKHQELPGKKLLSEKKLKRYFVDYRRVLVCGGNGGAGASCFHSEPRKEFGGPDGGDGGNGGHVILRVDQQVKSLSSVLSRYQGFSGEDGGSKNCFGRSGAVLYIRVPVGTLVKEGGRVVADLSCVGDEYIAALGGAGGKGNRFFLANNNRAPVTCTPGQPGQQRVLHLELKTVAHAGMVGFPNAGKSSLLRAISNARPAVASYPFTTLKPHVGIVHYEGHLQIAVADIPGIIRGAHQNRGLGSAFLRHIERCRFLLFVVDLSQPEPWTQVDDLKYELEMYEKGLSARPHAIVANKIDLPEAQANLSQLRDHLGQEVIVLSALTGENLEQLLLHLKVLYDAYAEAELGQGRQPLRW

According to article PMC8209036, “Structural basis for late maturation steps of the human mitoribosomal large subunit” (Nature Communications, 2021):

Target: C-terminal FLAG-tagged GTPBP5 (GTPBP5::FLAG) (human) (UniProt Q9H4K7)
Assay: cryo-EM structure; GTPBP5IP mt-LSU assembly intermediate: native complex from mitochondria of HEK293T cells expressing GTPBP5::FLAG, isolated on anti-FLAG M2 agarose and eluted with 3x FLAG peptide; 3.1 A reconstruction (3.2 A for the mtEF-Tu- and MTG1-containing particles)
Conditions: scale: % of the GTPBP5-containing pre-ribosomal particles

Which share of the GTPBP5-containing pre-ribosomal particles that hold mtEF-Tu does the source give for “mitochondrial elongation factor mtEF-Tu (from UniProt P49411 47-455) (natural protein; other documents disagree on this pair)” here?
The share of the GTPBP5-containing pre-ribosomal particles that hold mtEF-Tu was 75.
